Experimental data from published antibiotic growth screens (doi:10.1038/s41589-023-01349-8).
This is one part of the list.

What follows are compounds tested on A. baumannii ATCC 17978 (assay: relative growth (fraction of control); higher = less inhibition). Conditions: 50 µM.

Row | Structure (SMILES) | relative growth
1 | NCC[C@H]1CC[C@@H](NC(=O)C2CC2)[C@H](CO)O1 | 0.989
2 | O=C(C[C@H]1C=C[C@H](NC(=O)CN2CCOCC2)[C@H](CO)O1)NC1CCC1 | 1.05
3 | CNC[C@@H](O)CS(=O)(=O)c1ccccc1 | 1.02
4 | N=C(N)Nc1nc(=O)c2ccccc2s1 | 0.945
5 | CC(C)(C)[S@@](=O)N1Cc2cc(C(=O)N[C@@H]3CCN(Cc4ccccc4)C3)nc(-c3cccc(-c4cccnc4)c3)c2[C@H]1CCO | 0.829
6 | NC(=O)c1ncn(C2O[C@H](CO)[C@@H](O)[C@H]2O)c1N (stereo not given in full) | 0.943
7 | O=C(C[C@H]1C=C[C@H](NC(=O)Nc2ccc3c(c2)OCO3)[C@@H](CO)O1)NCCCN1CCOCC1 | 1.22
8 | C[C@H](O)C#Cc1ccc2c(c1)O[C@H](CN(C)C(=O)Nc1ccccc1)[C@@H](C)CN([C@H](C)CO)S2(=O)=O | 0.906
9 | CC(=O)c1ccc2c(c1)N(CCCN1CCN(CCO)CC1)c1ccccc1S2.O=C(O)/C=C\C(=O)O | 0.929
10 | CN(C)CCN(Cc1ccccc1)c1ccccn1.O=C(O)CC(O)(CC(=O)O)C(=O)O | 1.15
11 | C[C@H]1CN([C@@H](C)CO)S(=O)(=O)c2ccc(C#CC3CC3)cc2O[C@@H]1CN(C)Cc1ccccc1F | 1.51
12 | CCNC(=O)C[C@@H]1CC[C@H]2[C@@H](COC[C@@H](O)CN2C(=O)Nc2c(C)noc2C)O1 | 0.881
13 | COC(=O)C(N)CS.Cl (stereo not given) | 0.984
14 | CC(=O)NCCOCCOCC(=O)N[C@@H]1C/C=C/CCC(=O)N[C@H](c2ccccc2)COC1=O | 1
15 | CC(C)NCC(O)COc1ccc(CC(N)=O)cc1 (stereo not given) | 0.977
16 | O=C(C[C@@H]1CC[C@H]2[C@@H](COC[C@H](O)CN2C(=O)Nc2ccc(Cl)c(Cl)c2)O1)NCc1ccncc1 | 1.1
17 | COc1ccc([C@@H]2CC(=O)c3c(O)cc(O[C@@H]4O[C@H](CO[C@H]5O[C@@H](C)[C@H](O)[C@@H](O)[C@H]5O)[C@@H](O)[C@H](O)[C@H]4O)cc3O2)cc1O | 1.1
18 | C=CC[C@]1(C(=O)NCCN2CCOCC2)COC(c2ccc(OCCCO)cc2)=N1 | 1.03
19 | O=C(NCCO)C(=O)NCc1ccco1 | 1.04
20 | CSc1sc(C)cc1/C=N/O | 1.01

Row | Structure (SMILES) | relative growth
21 | CCS(=O)(=O)NCC[C@H]1CC[C@H](NC(=O)Cc2ccccn2)[C@H](CO)O1 | 1.22
22 | Cc1cc(C(=O)NCc2cccn2C)nn1C | 1.02
23 | C[C@@H]1CN([C@H](C)CO)S(=O)(=O)c2ccc(C3=CCCC3)cc2O[C@@H]1CN(C)S(=O)(=O)c1cn(C)cn1 | 0.807
24 | O=C(CN1CCOCC1)N[C@@H]1CC[C@H](CCn2cc(C3CCCC3)nn2)O[C@@H]1CO | 0.99
25 | O=C(CN1CCOCC1)N[C@H]1CC[C@H](CCn2cc(C3CCCC3)nn2)O[C@@H]1CO | 0.959
26 | O=C(C[C@@H]1CC[C@H]2[C@@H](COC[C@@H](O)CN2S(=O)(=O)c2ccccc2Cl)O1)NCc1ccccc1Cl | 0.914
27 | COC(=O)[C@@H](NC(=O)c1cc(C)on1)C(C)C | 0.982
28 | CC1(C)S[C@@H]2[C@H](NC(=O)COc3ccccc3)C(=O)N2[C@H]1C(=O)[O-].[K+] | 0.244
29 | NC(Cn1ccc(=O)c(O)c1)C(=O)O (stereo not given) | 1.2
30 | CN1C2CCC1CC(OC(c1ccccc1)c1ccccc1)C2.CS(=O)(=O)O (stereo not given) | 0.922
31 | NNC(=O)c1nnn(-c2nonc2N)c1CN1CCCCC1 | 1.09
32 | Cn1cc[nH]c1=S | 0.916
33 | CC(=O)N(CC(O)CO)c1c(I)c(C(=O)NCCO)c(I)c(C(=O)NCC(O)CO)c1I (stereo not given) | 1.08
34 | Cc1ccc(C(=O)Nc2ccc(S(=O)(=O)[O-])c3cc(S(=O)(=O)[O-])cc(S(=O)(=O)[O-])c23)cc1NC(=O)c1cccc(NC(=O)Nc2cccc(C(=O)Nc3cc(C(=O)Nc4ccc(S(=O)(=O)[O-])c5cc(S(=O)(=O)[O-])cc(S(=O)(=O)[O-])c45)ccc3C)c2)c1.[Na+].[Na+].[Na+].[Na+].[Na+].[Na+] | 1.3
35 | Cc1ccc([C@@H]2O[C@H](CO)[C@@H](O)[C@H](O)[C@H]2O)cc1Cc1ccc(-c2ccc(F)cc2)s1 | 0.844
36 | O=C(CN1CCOCC1)NCC[C@@H]1CC[C@H](NC(=O)Nc2ccccc2)[C@H](CO)O1 | 1.05
37 | CC(C)(C)c1csc(-c2ccc(OC(F)(F)F)cc2)n1 | 1.13
38 | O=S1(=O)C[C@H](NC[C@H]2C[C@@H]3C=C[C@H]2C3)[C@@H](O)C1 | 0.983
39 | C=CC(=O)NC(C)(C)CCN1CCOCC1 | 1.13
40 | Cc1cc(N2C(=O)CCC2=O)no1 | 0.833
